Biological target: T1, farnesoid X receptor alpha (Fxrα) (Oryzias latipes, UniProt H2M6M7)
T1 sequence (H2M6M7 201-485): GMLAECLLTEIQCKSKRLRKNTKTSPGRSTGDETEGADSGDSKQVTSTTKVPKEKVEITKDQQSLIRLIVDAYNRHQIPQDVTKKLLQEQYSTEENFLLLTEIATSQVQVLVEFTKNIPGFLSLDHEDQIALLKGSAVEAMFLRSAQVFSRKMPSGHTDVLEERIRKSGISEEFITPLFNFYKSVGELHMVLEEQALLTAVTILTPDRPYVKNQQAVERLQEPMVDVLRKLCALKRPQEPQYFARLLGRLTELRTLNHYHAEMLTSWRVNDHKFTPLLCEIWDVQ
T1 sequence (Q9UBK2 1-798 partner): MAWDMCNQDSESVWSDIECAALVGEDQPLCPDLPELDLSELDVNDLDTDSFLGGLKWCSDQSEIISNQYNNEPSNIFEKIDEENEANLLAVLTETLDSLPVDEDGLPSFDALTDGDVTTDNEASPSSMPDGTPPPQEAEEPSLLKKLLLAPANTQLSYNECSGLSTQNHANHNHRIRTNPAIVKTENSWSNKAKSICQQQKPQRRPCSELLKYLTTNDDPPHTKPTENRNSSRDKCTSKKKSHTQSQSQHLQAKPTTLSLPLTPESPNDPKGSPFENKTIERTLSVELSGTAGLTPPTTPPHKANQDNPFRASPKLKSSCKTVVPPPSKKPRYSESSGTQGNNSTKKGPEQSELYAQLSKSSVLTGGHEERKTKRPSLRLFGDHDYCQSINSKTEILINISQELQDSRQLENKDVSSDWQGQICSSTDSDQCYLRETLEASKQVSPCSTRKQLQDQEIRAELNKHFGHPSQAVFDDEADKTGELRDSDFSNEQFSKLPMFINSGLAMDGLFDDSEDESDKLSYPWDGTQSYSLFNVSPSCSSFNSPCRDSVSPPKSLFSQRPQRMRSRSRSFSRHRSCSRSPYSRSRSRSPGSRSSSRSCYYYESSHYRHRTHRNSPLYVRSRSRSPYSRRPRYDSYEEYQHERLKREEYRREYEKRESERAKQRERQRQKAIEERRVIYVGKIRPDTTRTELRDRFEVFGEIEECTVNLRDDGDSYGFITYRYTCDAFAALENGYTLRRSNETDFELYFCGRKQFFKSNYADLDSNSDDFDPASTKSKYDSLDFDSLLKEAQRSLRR
Assay: Gal4-LBD luciferase reporter in PLHC-1 cells at […]
Settings: read-out: Gal4-LBD luciferase reporter in PLHC-1 cells at 100 μM

With C[C@H](CCC(=O)NCCS(=O)(=O)O)[C@H]1CC[C@H]2[C@@H]3[C@H](O)C[C@@H]4C[C@H](O)CC[C@]4(C)[C@H]3CC[C@]12C [tauro-CDCA] as the molecule, how does the fold induction at 100 µM read?
The fold induction at 100 µM was 3.15.
